This assay concerns the target Phospholipase A2, major isoenzyme (Sus scrofa, UniProt P00592). Kind of assay: Compound was tested for the inhibitory activity against porcine pancreatic PLA2.

By UniProt entry, the sequences of proteins in these tests, tags left out. Where a name states a change or a piece, a line headed by the entry shows the natural chain unless it says otherwise.
UniProt P00592: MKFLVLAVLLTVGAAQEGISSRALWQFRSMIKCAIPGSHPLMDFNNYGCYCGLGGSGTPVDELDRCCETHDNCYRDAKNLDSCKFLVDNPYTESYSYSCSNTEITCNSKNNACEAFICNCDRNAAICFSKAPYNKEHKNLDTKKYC

This note sets out measurements from ChEMBL document CHEMBL1129058, “Indole inhibitors of human nonpancreatic secretory phospholipase A2. 2. Indole-3-acetamides with additional functionality” (J Med Chem, 1996).

Structures are written as SMILES.

With `Cc1c(CC(N)=O)c2c(OCCCC(=O)O)cccc2n1Cc1ccccc1`, half-maximal inhibition (IC50) was put at 610 nM.
